Earlier results, collected in publication PMC7473970, “Preformulation Studies of a Stable PTEN-PDZ Lipopeptide Able to Cross an In Vitro Blood-Brain-Barrier Model as a Potential Therapy for Alzheimer’s Disease” (Pharmaceutical Research, 2020).

Test system: in vitro BBB model
Conditions: typical literature values; cited from earlier work
Text: […]. This domain is brain permeable in vitro and in vivo, on its own, as a drug conjugate or as a peptide-functionalized nanomedicine that can be loaded with a therapeutic cargo. Current permeability values indicate that at financially viable doses, 0.2% of an intravenously injected dose can reach the brain. This value may be further enhanced if the nasal route is selected for delivery with a ...

fluorescein isothiocyanate dextran [FITC-Dextran (3–5 kDa)]
Papp, typical values: 0.2–7.3 × 10^−6 cm s^−1
